Laboratory results from patent US20070297980A1, “Geldanamycin and Derivatives Inhibit Cancer Invasion and Identify Novel Targets” (priority 2004, published 2007).

Experiments:
[1] = test system: HGF/SF-induced MDCK cell scattering; test: Scatter assay, MDCK cells; assay type: cell-based, canine; conditions: FIG. 10
Experimental: Scatter Assay. In parallel with assessing uPA activity, 96-well plates of MDCK cells were used to detect cell scattering. Cell preparation was same as above (plasmin assay) described above. At the same time as uPA activity was measured, the cells being assayed for scatter were fixed, stained (Diff-Quik Set, Dade Behring AG) and photographed.

[2] = test system: HGF/SF-induced uPA activity in MDCKG3 cells; conditions: MDCKG3 cells chronically exposed to MA
Experimental: Drugs were dissolved in DMSO and serially diluted from stock concentrations into DMEM/10% FBS medium and added to the appropriate wells. Immediately after drug or reagent addition, HGF/SF (60 ng/ml) was added to all wells (with the exception of wells used as controls to calculate basal growth and uPA-plasmin activity levels).

## COC1=C2C[C@@H](C)C[C@H](OC)[C@H](O)[C@@H](C)/C=C(\C)[C@H](OC(N)=O)[C@@H](OC)/C=C\C=C(/C)C(=O)NC(=CC1=O)C2=O [Compound 1, (+)-Geldanamycin]
[1]
  concentration range inhibiting HGF/SF-induced MDCK cell scattering: pM to fM range
[2]
  concentration at which effective against HGF/SF-induced uPA activity: 10^−3 M
